Assay results from PubChem BioAssay (NCI).
Some of these compounds have results that are not shown, active ones among them.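 Values below derive from 48-hour exposures of cells grown in 96-well plates, with endpoints linearly interpolated between the two concentrations bracketing the appropriate inhibition level. TGI marks complete inhibition of growth.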

How the values were obtained:
Assay in all cases: NCI tumour cell line growth inhibition, 48 h
[1] = tested on: SK-MEL-28 melanoma
[2] = tested on: 786-0 renal
[3] = tested on: HL-60(TB) leukemia
[4] = tested on: HCT-15 colon
[5] = tested on: SF-268 CNS
[6] = tested on: SF-539 CNS
[7] = tested on: BT-549 breast
[8] = tested on: MCF7 breast
[9] = tested on: RPMI-8226 leukemia
[10] = tested on: SNB-75 CNS
[11] = tested on: SNB-19 CNS
[12] = tested on: DU-145 prostate
[13] = tested on: HOP-92 NSCLC
[14] = tested on: K-562 leukemia
[15] = tested on: T-47D breast
[16] = tested on: COLO 205 colon
[17] = tested on: IGROV1 ovarian
[18] = tested on: SW-620 colon
[19] = tested on: SN12C renal
[20] = tested on: OVCAR-5 ovarian
[21] = tested on: KM12 colon
[22] = tested on: SK-MEL-5 melanoma
[23] = tested on: LOX IMVI melanoma
[24] = tested on: MOLT-4 leukemia
[25] = tested on: SK-OV-3 ovarian
[26] = tested on: CAKI-1 renal
[27] = tested on: U251 CNS
[28] = tested on: NCI-H322M lung
[29] = tested on: RXF 393 renal
[30] = tested on: HS 578T breast
[31] = tested on: HT29 colon
[32] = tested on: SR leukemia
[33] = tested on: SF-295 CNS
[34] = tested on: NCI-H226 lung
[35] = tested on: NCI/ADR-RES ovarian
[36] = tested on: ACHN renal
[37] = tested on: NCI-H522 lung
[38] = tested on: UACC-257 melanoma
[39] = tested on: OVCAR-3 ovarian
[40] = tested on: HOP-62 NSCLC
[41] = tested on: HCT-116 colon
[42] = tested on: PC-3 prostate
[43] = tested on: EKVX NSCLC
[44] = tested on: A549 NSCLC
[45] = tested on: OVCAR-8 ovarian
[46] = tested on: UACC-62 melanoma
[47] = tested on: MALME-3M melanoma
[48] = tested on: NCI-H23 lung
[49] = tested on: TK-10 renal
[50] = tested on: MDA-MB-435
[51] = tested on: MDA-N
[52] = tested on: SK-MEL-2 melanoma
[53] = tested on: CCRF-CEM leukemia
[54] = tested on: NCI-H460 lung
[55] = tested on: M14 melanoma
[56] = tested on: A498 renal
[57] = tested on: MDA-MB-231 breast
[58] = tested on: OVCAR-4 ovarian

Measured: TGI

CN1CCCC(OC(=O)C(O)(c2ccccc2)C2CCCC2)C1 (stereo not drawn)
> 100 µM: [1] | [2] | [3] | [4] | [5] | [6] | [7] | [8] | [9] | [10] | [11] | [12] | [13] | [14] | [15] | [16] | [17] | [18] | [19] | [20] | [21] | [22] | [23] | [24] | [25] | [26] | [27] | [28] | [29] | [30] | [31] | [32] | [33] | [34] | [35] | [36] | [37] | [38] | [39] | [40] | [41] | [42] | [43] | [44] | [45] | [46] | [47] | [48] | [49] | [50] | [51] | [52] | [53] | [54] | [55] | [56] | [57] | [58]
